Test results from the NIST ThermoML archive (doi:10.1016/j.fluid.2006.06.017).

Tests used:
[1] = refractive index (Na D-line) (dimensionless); details: 298.15 K; 101.33 kPa; Liquid; Standard Abbe refractometry
[2] = Liquid; for vapor or sublimation pressure: Ebulliometric method (Recirculating still)

CCCCOCCCC [dibutyl ether]
Details | refractive index
[1] | 1.397

Details | mass density [kg/m3]
[2], 298.15 K, 101.33 kPa | 764.04

[2]
Details | vapor or sublimation pressure [kPa]
346.03 K | 10.04
350.43 K | 12.03
354.18 K | 14.02
359.28 K | 17.1
363.41 K | 20.02
363.51 K | 20
367.17 K | 23.04
370.72 K | 26.18
373.59 K | 28.95
376.37 K | 31.96
379.91 K | 35.96
383.09 K | 39.94
386.03 K | 43.95
388.78 K | 47.95
391.29 K | 51.85
393.59 K | 55.85
395.84 K | 59.9
398.48 K | 64.9
400.94 K | 69.92
403.18 K | 74.81
405.4 K | 79.93
407.43 K | 84.78
409.2 K | 89.87
411.12 K | 94.88
413.11 K | 100.12
413.67 K | 101.3
